Data from article PMC4376794.

How the values were obtained:
[1] = target: STRA6-GFP-c-Myc-His6 (STRA6-HRV3C-eGFP-Myc-His6) (human); assay: SPR; holo-RBP (retinol-loaded, 6.9-219.3 uM) flowed over STRA6-GFP captured by its c-Myc tag on immobilised anti-c-Myc antibody (CM5, Biacore 3000); anti-HA antibody reference cell; room temperature; steady-state responses fitted to one site plus a linear low-affinity component; triplicate
[2] = target: STRA6-GFP-c-Myc-His6 (STRA6-HRV3C-eGFP-Myc-His6) (human); assay: SPR; apo-RBP (6.9-219.3 uM) flowed over STRA6-GFP captured by its c-Myc tag on immobilised anti-c-Myc antibody (CM5, Biacore 3000); anti-HA antibody reference cell; room temperature; steady-state responses fitted to one site plus a linear low-affinity component; triplicate

- stoichiometry N [1]: 0.64
- stoichiometry N [2]: 0.71
Substance: retinol binding protein (His-RBP) (from UniProt P02753 19-201) (ligand)
